Assay: in vivo
Settings: mouse, iv

Question: With NC[C@@H]1CC[C@@H](N)[C@@H](O[C@H]2[C@H](O)[C@@H](O[C@H]3O[C@H](CO)[C@@H](O)[C@H](N)[C@H]3O)[C@H](N)C[C@@H]2N)O1 [DKB, 3',4'-dideoxykanamycin B, reference compound] as the compound, how does the LD50 read?
Answer: 80 mg/kg
